The test addresses AMPA-R. Description: [3H]AMPA radioligand binding assay on rat brain synaptic membranes.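 Further: competition binding in which test compounds at rising concentrations displace [3H]AMPA from AMPA-R on rat brain synaptic membranes, with reduced bound radioligand as read-out.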 The settings on record: Table 8.

On to ASGSCMAFCFUFUMUSED [RG-NG-1039], for which the half-maximal inhibitory concentration (IC50) was not below 100 µM.

For orientation: IC50 means the concentration that inhibits the measured activity by half.

Source of the values: patent publication US12559750B2, “Methods and compositions for treatment of polycystic kidney disease” (Regulus Therapeutics Inc., priority 2021, dated 2026).
